{
  "source": "patent US8492564B2",
  "about": "(priority 2008, dated 2013)",
  "target": "hKOPR (Homo sapiens (Human), UniProt P41145)",
  "assay_type": "biochemical",
  "data": [
    {"smiles": "COC(=O)[C@@H]1C[C@H](OC(C)=O)C(=O)[C@H]2[C@@]1(C)CC[C@H]1C(=O)O[C@H](c3ccoc3)C[C@]21C", "note": "[Salvinorin A, salvinorin A]", "values": [
      {"measurement": "Efficacy (Percent of the maximal effect of U50,488H)", "value": "105 ± 4", "unit": "%"}
    ]},
    {"smiles": "COC(=O)[C@@H]1C[C@H](OC(C)=O)C(=O)[C@H]2[C@@]1(C)CCC1C(=O)O[C@@H](c3ccoc3)C[C@@]12C", "note": "(stereo partly drawn) [Compound 6, 12-epi-salvinorin A]", "values": [
      {"measurement": "Efficacy (Percent of the maximal effect of U50,488H)", "value": "67 ± 5", "unit": "%"},
      {"measurement": "agonist properties in the [35S]GTPγS assay", "value": "partial agonist properties"},
      {"measurement": "effect on [35S]GTPγS binding induced by U50,488", "value": "significantly reduced"}
    ]}
  ]
}
